Source: patent US9937166B2 (INFLAMMATORY RESPONSE RESEARCH, INC., priority 2013, dated 2018)

System: Adult Respiratory Distress Syndrome
Settings: alone

Question: `O=C(O)COCCN1CCN([C@H](c2ccccc2)c2ccc(Cl)cc2)CC1` [levocetirizine] was tested. Which “Believed effect of the single agent in ARDS” value did it give?
Answer: not be potent enough by itself to clear a patient's lungs
